Test results taken from ChEMBL document CHEMBL1143970, “Structure-activity relationships and CoMFA of N-3 substituted phenoxypropyl piperidine benzimidazol-2-one analogues as NOP receptor agonists with analgesic properties” (Bioorg Med Chem, 2008).

Assay: Agonist activity at human NOP receptor expressed in CHO cells assessed as forskolin-induced cAMP

`COc1ccc(C)c(OC(CCN2CCC(n3c(=O)n(Cc4cccs4)c4ccccc43)CC2)C(C)C)c1` (centres undefined) and `COc1ccc(C)c(OC(CCN2CCC(n3c(=O)n(Cc4ccsc4)c4ccccc43)CC2)C(C)C)c1` (centres undefined) are within 1.5-fold of each other in IC50: 150 nM for the first, 193 nM for the second.

Compared with `COc1ccc(C)c(OC(CCN2CCC(n3c(=O)n(Cc4cc(C)on4)c4ccccc43)CC2)C(C)C)c1` (centres undefined), `COc1ccc(C)c(OC(CCN2CCC(n3c(=O)n(Cc4nc(C)no4)c4ccccc43)CC2)C(C)C)c1` (centres undefined) is 3.3-fold lower in IC50: 1300 nM for the first, 394 nM for the second. The second is the more potent here.

Going from `COc1ccc(C)c(OC(CCN2CCC(n3c(=O)n(Cc4cccnc4)c4ccccc43)CC2)C(C)C)c1` (centres undefined) to `COc1ccc(C)c(OC(CCN2CCC(n3c(=O)n(Cc4ccncc4)c4ccccc43)CC2)C(C)C)c1` (centres undefined), the IC50 rises from 330 nM to 816 nM (2.5-fold).

First: COc1ccc(C)c(OC(CCN2CCC(n3c(=O)n(Cn4ccnc4)c4ccccc43)CC2)C(C)C)c1 (centres undefined)
Second: COc1ccc(C)c(OC(CCN2CCC(n3c(=O)n(Cn4cccn4)c4ccccc43)CC2)C(C)C)c1 (centres undefined)
The IC50 of the first is 2.9-fold higher: 297 nM for the first, 103 nM for the second. The second is the more potent here.

First: COc1ccc(C)c(OC(CCN2CCC(n3c(=O)n(Cc4nnc(C)[nH]4)c4ccccc43)CC2)C(C)C)c1 (centres undefined)
Second: COc1ccc(C)c(OC(CCN2CCC(n3c(=O)n(Cc4n[nH]c(=O)[nH]4)c4ccccc43)CC2)C(C)C)c1 (centres undefined)
The IC50 of the first is 8.4-fold higher: 506 nM for the first, 60.4 nM for the second. The second is the more potent here.

`COc1ccc(C)c(OC(CCN2CCC(n3c(=O)n(Cc4ncon4)c4ccccc43)CC2)C(C)C)c1` (centres undefined) and `COc1ccc(C)c(OC(CCN2CCC(n3c(=O)n(Cc4cocn4)c4ccccc43)CC2)C(C)C)c1` (centres undefined) are within 1.5-fold of each other in IC50: 32.8 nM for the first, 22.3 nM for the second.

Going from `COc1ccc(C)c(OC(CCN2CCC(n3c(=O)n(Cc4cscn4)c4ccccc43)CC2)C(C)C)c1` (centres undefined) to `COc1ccc(C)c(OC(CCN2CCC(n3c(=O)n(Cc4c[nH]cn4)c4ccccc43)CC2)C(C)C)c1` (centres undefined), the IC50 rises from 31.1 nM to 134 nM (4.3-fold).

Going from `CNC(=O)Cn1c(=O)n(C2CCN(CCC(Oc3cc(OC)ccc3C)C(C)C)CC2)c2ccccc21` (centres undefined) to `COc1ccc(C)c(OC(CCN2CCC(n3c(=O)n(Cc4cnn[nH]4)c4ccccc43)CC2)C(C)C)c1` (centres undefined), the IC50 rises from 10 nM to 254 nM (25-fold). The first is the more potent here.

Compared with `COc1ccc(C)c(OC(CCN2CCC(n3c(=O)n(Cc4ncco4)c4ccccc43)CC2)C(C)C)c1` (centres undefined), `COc1ccc(C)c(OC(CCN2CCC(n3c(=O)n(Cc4cnccn4)c4ccccc43)CC2)C(C)C)c1` (centres undefined) is 16-fold higher in IC50: 29.1 nM for the first, 468 nM for the second.

First: COc1ccc(C)c(OC(CCN2CCC(n3c(=O)n(Cn4ccnc4C)c4ccccc43)CC2)C(C)C)c1 (centres undefined)
Second: COc1ccc(C)c(OC(CCN2CCC(n3c(=O)n(Cn4cncn4)c4ccccc43)CC2)C(C)C)c1 (centres undefined)
The IC50 of the first is 9.1-fold higher: 361 nM for the first, 39.5 nM for the second. The second is the more potent here.

`COc1ccc(C)c(OC(CCN2CCC(n3c(=O)n(Cc4ccccn4)c4ccccc43)CC2)C(C)C)c1` (centres undefined) and `COc1ccc(C)c(OC(CCN2CCC(n3c(=O)n(Cc4ncnn4C)c4ccccc43)CC2)C(C)C)c1` (centres undefined) are within 1.5-fold of each other in IC50: 95.4 nM for the first, 77.9 nM for the second.

`COc1ccc(C)c(OC(CCN2CCC(n3c(=O)n(Cc4c(C)noc4C)c4ccccc43)CC2)C(C)C)c1` (centres undefined) showed an IC50 of 187 nM.

For `COc1ccc(C)c(OC(CCN2CCC(n3c(=O)n(Cc4ncn[nH]4)c4ccccc43)CC2)C(C)C)c1` (centres undefined), the IC50 was 11.5 nM and 10.8 nM.

Several values for one entry are separate records, joined by “and”; a condition that tells them apart may be missing. Equal values may be shown once.
